Experimental data as given in publication PMC2744590 (Biochimica et biophysica acta, 2009).

Amino acid sequences for entries named in this document (tags omitted). Residues count along the entry.
UniProt P09483, 31-630: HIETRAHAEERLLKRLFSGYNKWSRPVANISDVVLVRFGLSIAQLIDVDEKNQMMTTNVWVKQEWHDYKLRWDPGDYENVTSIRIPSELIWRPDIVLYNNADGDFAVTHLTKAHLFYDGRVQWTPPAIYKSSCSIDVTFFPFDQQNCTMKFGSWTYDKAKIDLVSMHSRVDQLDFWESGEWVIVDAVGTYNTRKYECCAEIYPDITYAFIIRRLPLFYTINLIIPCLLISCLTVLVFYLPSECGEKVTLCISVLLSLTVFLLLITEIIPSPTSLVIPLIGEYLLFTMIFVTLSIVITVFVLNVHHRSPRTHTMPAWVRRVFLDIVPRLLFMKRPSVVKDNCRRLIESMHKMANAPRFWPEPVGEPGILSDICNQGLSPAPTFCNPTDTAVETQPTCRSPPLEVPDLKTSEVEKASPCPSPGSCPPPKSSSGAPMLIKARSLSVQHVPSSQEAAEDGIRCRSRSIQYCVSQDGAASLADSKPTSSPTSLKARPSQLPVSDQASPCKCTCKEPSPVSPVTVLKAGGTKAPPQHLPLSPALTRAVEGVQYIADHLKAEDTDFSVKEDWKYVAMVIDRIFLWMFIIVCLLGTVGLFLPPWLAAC
UniProt P12392, 25-495: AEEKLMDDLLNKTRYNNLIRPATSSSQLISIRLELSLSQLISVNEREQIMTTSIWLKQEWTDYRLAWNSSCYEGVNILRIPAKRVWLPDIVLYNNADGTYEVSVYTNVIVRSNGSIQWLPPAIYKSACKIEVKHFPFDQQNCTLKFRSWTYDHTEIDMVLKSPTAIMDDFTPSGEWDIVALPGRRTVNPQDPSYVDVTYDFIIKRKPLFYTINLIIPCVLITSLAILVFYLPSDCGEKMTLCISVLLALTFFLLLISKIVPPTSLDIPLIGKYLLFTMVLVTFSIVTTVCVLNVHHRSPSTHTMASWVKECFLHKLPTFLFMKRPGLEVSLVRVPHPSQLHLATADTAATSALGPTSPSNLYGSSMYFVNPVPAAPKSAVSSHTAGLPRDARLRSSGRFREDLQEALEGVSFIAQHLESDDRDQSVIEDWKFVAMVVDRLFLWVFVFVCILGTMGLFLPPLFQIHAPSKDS

Tests used:
rat α4β4 nAChRs = rat α4β4 nAChRs (Rattus norvegicus, UniProt P09483+P12392); type: binding; details: 1 nM probe, 254 nm, 30 or 15 min
α4β2/α4β4 = details: higher affinity to β2; cited from earlier work
α3β2/α3β4 = details: higher affinity to β2; cited from earlier work
α2β2/α2β4 = details: higher affinity to β2; cited from earlier work

[^125I]epibatidine
pattern of photoincorporation (rat α4β4 nAChRs): incorporated selectively into the β4 subunit
fold difference in affinity, β2- compared to β4-containing receptors (α4β2/α4β4): ~3 fold
fold difference in affinity, β2- compared to β4-containing receptors (α3β2/α3β4): ~22 fold
fold difference in affinity, β2- compared to β4-containing receptors (α2β2/α2β4): ~8 fold
